Assays:
recombinant hDHODH = recombinant hDHODH (Homo sapiens (Human), UniProt Q02127); test: hDHODH inhibition assay (DCIP reduction); type: biochemical; settings: recombinant GST-hDHODH; means ± SE of three independent experiments
[1] = log D (pH 7.4), shake-flask n-octanol/PBS; settings: n-octanol/PBS pH 7.4, shake flask

Sequences of proteins named here, by UniProt entry; tags and fusion partners are left off. A change or cut given only in a name is not applied to a line headed by its entry.
UniProt Q02127: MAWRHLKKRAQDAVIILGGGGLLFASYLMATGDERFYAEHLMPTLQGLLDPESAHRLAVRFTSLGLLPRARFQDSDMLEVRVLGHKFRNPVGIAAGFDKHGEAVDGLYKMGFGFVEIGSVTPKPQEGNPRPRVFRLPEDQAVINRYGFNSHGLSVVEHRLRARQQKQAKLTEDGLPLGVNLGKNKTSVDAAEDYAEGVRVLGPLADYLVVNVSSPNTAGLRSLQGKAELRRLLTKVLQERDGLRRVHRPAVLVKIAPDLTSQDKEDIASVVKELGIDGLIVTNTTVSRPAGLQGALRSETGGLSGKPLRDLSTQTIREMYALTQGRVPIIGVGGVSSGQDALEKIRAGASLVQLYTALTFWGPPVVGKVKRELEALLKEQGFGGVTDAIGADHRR

**Q.** Which IC50 (recombinant hDHODH) does the source give for “2-Hydroxy-N-(2-methyl-4-(p-tolyloxy)phenyl) pyrazolo[1,5-a]pyridine-3-carboxamide [Compound 28]” here?
**A.** 400 ± 60 nM

**Q.** What about the “Log D7.4 ± SD” value [1] of the same substance?
**A.** 2.46 ± 0.05
